In assay [1] the test system is E. coli strain DH5αE (parental). Nature of the assay: zone of growth inhibition test on LB agar plates. As to conditions: disk with 90 μmol pHBA sodium salt, 24 hr at 37° C. The format is cell-based. As for the experimental part: (§1) A zone of growth inhibition test was done using 0.1 ml of overnight cultures in LB medium plated onto LB agar plates using 2.5 ml LB soft agar.

Assay [2] relates to E. coli strain DPD2443 (yhcP::TN<Kan> of DH5αE). Nature of the assay: zone of growth inhibition test on LB agar plates. In kind it is cell-based. The conditions noted are these: disk with 90 μmol pHBA sodium salt, 24 hr at 37° C. How it is done: as §1
Assay [3] relates to yhcRQP-luxCDABE gene fusion in strain DPD2436 (yhcS+). In words: Bioluminescence response of yhcRQP-luxCDABE gene fusion. In kind it is cell-based, E. coli. An excerpt:
(§2) Plasmid pDEW655 was constructed by ligating an E. coli chromosomal segment between nucleotides 3385829 and 3386761 according to the E. coli genomic sequence, which contains the promoter region of the putative yhcRQP operon and the entire yhcR gene and the 5′ end of the yhcQ gene, to the luxCDABE genes parental plasmid, pDEW201 (Gonye et al. U.S. Patent Application Publication 20030219736). Thus, this gene fusion will report on expression of the yhcQ gene and accordingly any other genes cotranscribed with it. Plasmid pDEW655 was moved to E. coli strains MG1655 and DPD2433 by transformation, selecting for Ampicillin resistance to generate strains DPD2436 and DPD2437, respectively. The bioluminescent response of these two strains to pHBA was tested. Aliquots (50 μl) of actively growing cultures at 37° C. in LB medium that had been previously diluted and from overnight cultures in LB medium with 150 μg/ml Ampicillin were added to 50 μl of LB medium at pH 7.0 containing pHBA as the sodium salt form. Several concentrations of pHBA were tested. […] The yhcS::TN<Kan> mutation almost completely eliminated the upregulation of expression induced by pHBA treatment at all concentrations tested.

The subject of assay [4] is yhcRQP-luxCDABE gene fusion in strain DPD2437 (yhcS−). Described as above. As to conditions: ychS−, thirty minutes. In kind it is cell-based, E. coli.
Source text: as §2

A further assay concerns E. coli DPD2444 (yhcP−). In kind it is cell-based. As to conditions: MIC MG1655 versus MIC DPD2444. As for the experimental part:
Additional compounds were tested for growth inhibition of E. coli MG1655 (yhcP^+) and DPD2444 (yhcP^−) in Vogel-Bonner medium with glucose as the carbon source and with 0.01% tetrazolium violet added as an indicator of viability. A series of two-fold dilutions of each chemical was made to the wells of a clear 96-well microplate in 50 μl volume. To these wells was added 50 μl of an overnight culture in Vogel Bonner medium with glucose as a carbon source of either MG1655 or DPD2444 that had been previously diluted 500-fold into fresh medium. The plates were incubated at 37° C. without shaking for 16 to 18 hours. The purple color in each well was visually scored. A score of 4+ indicated full purple color equivalent to a no chemical control well. Scores of 3+, 2+, or 1+ indicated decreasing amounts of purple color. A score of − indicated the complete absence of color. The MIC was defined as the lowest tested concentration that gave complete absence of color. The rank of difference between strains was defined as the score of pigment color for E. coli MG1655 in wells containing the concentration of a given chemical at the MIC for DPD24444. When MG1655 had no color, the score was 0. When MG 1655 was scored at 1+, the score was 1, when scored at 2+, the score was 2, etc.

Regarding `O=C(O)c1ccc(O)cc1` [pHBA, para-hydroxybenzoic acid], the “pHBA zone of growth inhibition (relative clarity)” value in assay [1] was “turbid”; in assay [2] it was “very slightly turbid”. The Ratio treated/control in assay [3] ([pHBA] 1.6, thirty minutes) is given as 10.6; in assay [3] ([pHBA] 3.1, thirty minutes), 16.2; in assay [3] ([pHBA] 6.2, thirty minutes), 25.7; in assay [3] ([pHBA] 12.5, thirty minutes), 48.8; in assay [3] ([pHBA] 25, thirty minutes), 106; in assay [3] ([pHBA] 50, thirty minutes), 145. Moreover, the Ratio treated/control in assay [3] ([pHBA] 100, thirty minutes) was determined as 0.693; in assay [4] ([pHBA] 1.6) it was 1.25; in assay [4] ([pHBA] 3.1), 1.42; in assay [4] ([pHBA] 6.2) it was 1.75; in assay [4] ([pHBA] 12.5), 2.23; in assay [4] ([pHBA] 25), 1.95. For the same compound, the Ratio treated/control is given as 0.753 in assay [4] ([pHBA] 50) and 0.055 in assay [4] ([pHBA] 100). Moreover, in the assay with E. coli DPD2444 (yhcP−), the “Fold Diff” value was 8.

These data come from US7279321B2, “Methods for increasing the resistance of a host cell to aromatic carboxylic acids” (priority 2003, dated 2007).
